The values that follow are results of earlier work, collected in paper PMC4532868, “Beneficial Effects of the mTOR Inhibitor Everolimus in Patients with Advanced Medullary Thyroid Carcinoma: Subgroup Results of a Phase II Trial” (International Journal of Endocrinology, 2015).

For the series, the system named is EGFR P848L. Also on record: method as in PMID 17877814, PMID 22848293. The settings on record: nonsmall cell lung carcinoma; cited from earlier work.

Take `COc1cc2ncnc(Nc3ccc(F)c(Cl)c3)c2cc1OCCCN1CCOCC1` [gefitinib]: the “Sensitivity of EGFR P848L mutation to treatment” value is “insensitive”.
